# Permeability data for macrocyclic peptides

Collected by the curators of CycPeptMPDB (Li et al. 2023) from Golosov et al. 2021, doi:10.1021/acs.jmedchem.0c01505.

PAMPA is the parallel artificial membrane permeability assay, which has no cells and reads passive diffusion.
RRCK is a low-efflux MDCK cell line.
EPSA reports exposed polarity as measured by chromatography; lower is less polar.
Permeability is in 10^-6 cm/s, converted from the database's log10 values; higher is more permeable.
A value with < or ≤ is an upper limit.

* CCCC[C@@H]1NC(=O)[C@H](CCCC)NC(=O)[C@H](CCCC)NC(=O)[C@H](CCCC)NC(=O)[C@@H](Cc2ccccc2)NC(=O)CSC[C@@H](C(=O)NC)NC1=O: PAMPA < 1 × 10^-6 cm/s; RRCK 0.4 × 10^-6 cm/s; EPSA 107 Å2
* CCCC[C@@H]1NC(=O)[C@H](CCCC)N(C)C(=O)[C@H](CCCC)N(C)C(=O)[C@H](CCCC)N(C)C(=O)[C@H](CCCC)NC(=O)[C@H](CCCC)N(C)C(=O)[C@H](Cc2ccccc2)NC(=O)CSC[C@@H](C(=O)NC)NC1=O: RRCK < 0.35 × 10^-6 cm/s
* CCCC[C@@H]1NC(=O)[C@H](CCCC)NC(=O)[C@H](CCCC)NC(=O)[C@H](CCCC)N(C)C(=O)[C@@H](Cc2ccccc2)NC(=O)CSC[C@@H](C(=O)NC)NC1=O: PAMPA 7.9 × 10^-6 cm/s
* CCCC[C@@H]1NC(=O)[C@H](CCCC)NC(=O)[C@H](CCCC)N(C)C(=O)[C@@H](Cc2ccccc2)NC(=O)CSC[C@@H](C(=O)NC)N(C)C(=O)[C@H](CCCC)NC1=O: PAMPA < 1 × 10^-6 cm/s
* CCCC[C@@H]1NC(=O)[C@H](CCCC)N(C)C(=O)[C@@H](Cc2ccccc2)NC(=O)CSC[C@@H](C(=O)NC)NC(=O)[C@H](CCCC)N(C)C(=O)[C@@H]2CCCN2C1=O: PAMPA 25 × 10^-6 cm/s
* CCCC[C@@H]1NC(=O)[C@H](Cc2ccccc2)NC(=O)CSC[C@@H](C(=O)NC)NC(=O)[C@H](CCCC)N(C)C(=O)[C@H](CCCC)NC(=O)[C@H](CCCC)N(C)C1=O: PAMPA 50 × 10^-6 cm/s; RRCK 3.9 × 10^-6 cm/s; EPSA 74 Å2
* CCCC[C@@H]1NC(=O)[C@H](Cc2ccccc2)N(C)C(=O)CSC[C@@H](C(=O)NC)N(C)C(=O)[C@H](CCCC)NC(=O)[C@H](CCCC)N(C)C(=O)[C@H](CCCC)NC1=O: PAMPA 50 × 10^-6 cm/s; RRCK 7.9 × 10^-6 cm/s; EPSA 69 Å2
* CCCC[C@@H]1NC(=O)[C@H](CCCC)N(C)C(=O)[C@@H]2CCCN2C(=O)[C@H](CCCC)N(C)C(=O)[C@H](Cc2ccccc2)NC(=O)CSC[C@@H](C(=O)NC)NC(=O)[C@H](CCCC)N(C)C1=O: PAMPA 100 × 10^-6 cm/s; EPSA 69 Å2
* CCCC[C@@H]1NC(=O)[C@H](CCCC)NC(=O)[C@H](CCCC)N(C)C(=O)[C@H](CCCC)NC(=O)[C@H](CCCC)N(C)C(=O)[C@H](CCCC)NC(=O)[C@@H](Cc2ccccc2)N(C)C(=O)CSC[C@@H](C(=O)NC)NC1=O: RRCK < 0.35 × 10^-6 cm/s; EPSA 73 Å2
* CCCC[C@@H]1NC(=O)[C@H](CCCC)N(C)C(=O)[C@H](CCCC)N(C)C(=O)[C@@H](Cc2ccccc2)NC(=O)CSC[C@@H](C(=O)NC)NC(=O)[C@H](CCCC)N(C)C1=O: PAMPA 7.9 × 10^-6 cm/s
* CCCC[C@@H]1NC(=O)[C@H](Cc2ccccc2)NC(=O)CSC[C@@H](C(=O)NC)NC(=O)[C@H](CCCC)NC(=O)[C@@H]2CCCN2C(=O)[C@H](CCCC)NC1=O: PAMPA 1.3 × 10^-6 cm/s
* CCCC[C@@H]1NC(=O)[C@H](Cc2ccccc2)NC(=O)CSC[C@@H](C(=O)NC)NC(=O)[C@@H]2CCCN2C(=O)[C@H](CCCC)NC(=O)[C@H](CCCC)NC1=O: PAMPA < 0.2 × 10^-6 cm/s

2 of these entries, quoted again:

- CCCC[C@@H]1NC(=O)[C@H](Cc2ccccc2)N(C)C(=O)CSC[C@@H](C(=O)NC)N(C)C(=O)[C@H](CCCC)NC(=O)[C@H](CCCC)N(C)C(=O)[C@H](CCCC)NC1=O: PAMPA 50 × 10^-6 cm/s; RRCK 7.9 × 10^-6 cm/s; EPSA 69 Å2
- CCCC[C@@H]1NC(=O)[C@H](Cc2ccccc2)NC(=O)CSC[C@@H](C(=O)NC)NC(=O)[C@H](CCCC)NC(=O)[C@@H]2CCCN2C(=O)[C@H](CCCC)NC1=O: PAMPA 1.3 × 10^-6 cm/s

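Conditions beyond the assay type are not listed; see the original paper. The list need not hold all peptides of the study. Peptides that the database sets to -10, its floor, are left out.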